From patent US9540333B2, “Alkyl amide-substituted pyrimidine compounds useful in the modulation of IL-12, IL-23 and/or IFNα” (Bristol-Myers Squibb Company, priority 2012, dated 2017)

Sequences of proteins named here, by UniProt entry; tags and fusion partners are left off. Residues count along the entry.
UniProt P29597, 575-869 limits assumed: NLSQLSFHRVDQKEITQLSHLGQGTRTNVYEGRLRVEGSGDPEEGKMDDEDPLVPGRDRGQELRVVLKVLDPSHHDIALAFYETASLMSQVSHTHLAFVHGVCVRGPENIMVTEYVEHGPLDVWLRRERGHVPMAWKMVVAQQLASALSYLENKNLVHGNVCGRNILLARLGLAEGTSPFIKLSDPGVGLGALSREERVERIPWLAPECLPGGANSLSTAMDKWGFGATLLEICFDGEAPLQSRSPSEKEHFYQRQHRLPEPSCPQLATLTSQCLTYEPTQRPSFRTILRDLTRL

How the values were obtained:
[1] = tested on: IFNα stimulated Kit225 T cells with STAT-dependent luciferase reporter; assay: Kit225 T cell assay, IFNα stimulated STAT-dependent luciferase reporter; settings: read-out: IFNα Kit225 Reporter, LE (IC50), 200 U/mL human recombinant IFNα, 5-6 hours
Experimental: (§1) Kit225 T cells with a stably-integrated STAT-dependent luciferase reporter were plated in RPMI (Gibco) containing 10% heat-inactivated FBS (Gibco) and 100 U/mL PenStrep (Gibco). The cells were then stimulated with either 20 ng/mL human recombinant IL-23 or 200 U/mL human recombinant IFNα (PBL InterferonSource) for 5-6 hours. Luciferase expression was measured using the STEADY-GLO® Luciferase Assay System (Promega) according to the manufacturer's instructions. Inhibition data were calculated by comparison to no inhibitor control wells for 0% inhibition and non-stimulated control wells for 100% inhibition. Dose response curves were generated to determine the concentration required to inhibit 50% of cellular response (IC50) as derived by non-linear regression analysis.

[2] = tested on: IL-23 stimulated Kit225 T cells with STAT-dependent luciferase reporter; assay: Kit225 T cell assay, IL-23 stimulated STAT-dependent luciferase reporter; settings: read-out: IL-23 Kit225 Reporter, LE (IC50), 20 ng/mL human recombinant IL-23, 5-6 hours
Experimental: as §1

[3] = target: His-tagged protein corresponding to amino acids 575-869 of human Tyk2 (Homo sapiens, UniProt P29597); assay: Probe displacement assay (scintillation proximity, radiolabeled probe); settings: read-out: Probe Displacement Data (EC50); 2.5 nM Tyk2 (575-869), 40 nM tritiated probe, 30 minutes at room temperature
Experimental: The probe displacement assay is conducted as follows: In a […], test compounds along with recombinantly expressed His-tagged protein corresponding to amino acids 575-869 of human Tyk2 (sequence shown below) at 2.5 nM, 40 nM ((R)—N-(1-(3-(8-methyl-5-(methylamino)-8H-imidazo[4,5-d]thiazolo[5,4-b]pyridin-2-yl)phenyl)ethyl)-2-([^3H]methylsulfonyl)benzamide) (preparation described below) and 80 μg/mL Copper His-Tag scintillation proximity assay beads (Perkin Elmer, Catalog #RPNQ0095) in 50 mM HEPES, pH 7.5, containing 100 μg/mL bovine serum albumin and 5% DMSO were incubated for 30 minutes at room temperature. The amount of radiolabeled probe (preparation described below) bound to Tyk2 was then quantified by scintillation counting, and the inhibition by the test compound calculated by comparison to wells either with no inhibitor (0% inhibition) or without Tyk2 (100% inhibition). The IC50 value is defined as the concentration of test compound required to inhibit radiolabeled probe binding by 50%.
Protein Sequence of recombinant Hig-tagged Tyk2 (575-869):
The preparation of radiolabeled probe, (R)—N-(1-(3-(8-methyl-5-(methylamino)-8H-imidazo[4,5-d]thiazolo[5,4-b]pyridin-2-yl)phenyl)ethyl)-2-([^3H]methylsulfonyl)benzamide, was performed as described below.

CCCNc1ncc(C(=O)NC)c(Nc2ccccc2C(N)=O)n1
IC50 [1]: 12.5 µM
IC50 [2]: 9.18 µM
EC50 [3]: 0.09 µM
